Patent publication US8501732B2, “Aminomethyl quinolone compounds” (Hoffmann-La Roche Inc., priority 2011, dated 2013)

The chains behind the UniProt entries cited, without tags or fusion partners. Where a name states a change or a piece, a line headed by the entry shows the natural chain unless it says otherwise.
UniProt P45983: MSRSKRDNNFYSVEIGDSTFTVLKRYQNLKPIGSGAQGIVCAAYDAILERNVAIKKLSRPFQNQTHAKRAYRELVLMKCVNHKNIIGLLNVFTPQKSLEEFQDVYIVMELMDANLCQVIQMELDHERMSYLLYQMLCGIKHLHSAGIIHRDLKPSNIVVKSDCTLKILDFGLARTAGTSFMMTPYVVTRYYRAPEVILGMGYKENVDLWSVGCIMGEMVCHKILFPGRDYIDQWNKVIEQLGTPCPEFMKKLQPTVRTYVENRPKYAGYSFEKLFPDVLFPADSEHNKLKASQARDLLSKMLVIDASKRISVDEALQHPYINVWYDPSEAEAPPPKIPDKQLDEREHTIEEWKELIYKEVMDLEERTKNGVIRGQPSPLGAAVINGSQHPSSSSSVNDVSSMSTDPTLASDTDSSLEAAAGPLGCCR

Tests used:
[1] = test system: phospho(Ser63)-c-jun in HK-2 cells; experiment: Cell-Based Assay for JNK Inhibitors (in-cell ELISA, phospho(Ser63)-c-jun after TNFα); conditions: Homo sapiens, HK-2, read-out: HK-2, EC50 (μM)
Procedure: Cell-Based Assay for JNK Inhibitors
The cell-based assay employed the in-cell ELISA method to determine the ability of compounds to prevent the generation of phospho(Ser63)-c-jun in HK-2 cells (human proximal tubule cells) in response to stimulation with tumor necrosis factor α (TNFα). In brief, for quantification of phospho(Ser63)-c-jun, the cells (in 96-well format) were fixed and permeablized then incubated sequentially with a rabbit anti-phospho-c-jun First Antibody specific for the presence of the phospho-Ser63 epitope and a donkey anti-rabbit IgG Second Antibody linked to horseradish peroxidase (HRP) for colorimetric quantitation of binding. […] Blank wells received no TNFα stimulation or compound. Additional Control wells received TNFα stimulation, but no compound.
Stock cultures of HK-2 cells (ATCC, Manassas, Va.) were grown under a 5% CO2/[…] atmosphere at 37 degrees C. in Keratinocyte-SFM medium (KSFM, Invitrogen, Grand Island, N.Y.) containing 5 μg/L epidermal growth factor and 5 mg/L bovine pituitary extract (both supplied with the medium), additionally supplemented with 10% (v/v) fetal calf serum (FCS; Invitrogen, Grand Island, N.Y.) and 1% (v/v) antibiotic-antimycotic (ABAM: Sigma, St. Louis, Mo.). […] Absorbance was determined at a 450 nm wavelength using a spectrophotometer (Molecular Devices SpectraMax 250).

[2] = molecular target: JNK1 (Homo sapiens (Human), UniProt P45983); experiment: In Vitro JNK1 Assay (TR-FRET, phosphorylation of GST-c-Jun); assay type: biochemical
Procedure: Phosphorylation of GST-c-Jun protein (amino acid residues 1-79) was measured as JNK1 activity. […] The reaction buffer contained 50 mM HEPES, pH […], 1 mM DTT, 0.1 mM Na3VO4 and 0.2 mg/mL BSA. After 30 min. incubation at room temperature, the reaction was terminated by adding buffer containing 8 mM EDTA and a polyclonal anti-phospho-c-Jun antibody (Cell Signaling #9261L), followed by an additional incubation of 30 min. at room temperature. […] Time-resolved Fluorescence Resonance Energy Transfer (TR-FRET) signals were measured 1 hr. later on the EnVision reader (Perkin Elmer). Compound potency was assessed at 10 serially diluted concentrations. Percentage of inhibition at each concentration was determined to generate an IC50 value for each compound.

For `COC(=O)c1c(CNC(=O)c2ccc(F)c(F)c2)c(=O)c2ccc(Cl)cc2n1-c1ccccc1` [Example I-137, 7-Chloro-3-[(3,4-difluoro-benzoylamino)-methyl]-4-oxo-1-phenyl-1,4-dihydro-quinoline-2-carboxylic acid methyl ester], the EC50 [1] was 10 µM and the IC50 [2] was 0.012 µM.
